The values that follow are results of earlier work, collected in paper PMC10810133, “Exploring the inhibitory potential of in silico-designed small peptides on Helicobacter pylori Hp0231 (DsbK), a periplasmic oxidoreductase involved in disulfide bond formation” (Frontiers in Molecular Biosciences, 2024).

By UniProt entry, the sequences of proteins in these tests, tags left out. Residues count along the entry.
UniProt P0AEG4, 20-208: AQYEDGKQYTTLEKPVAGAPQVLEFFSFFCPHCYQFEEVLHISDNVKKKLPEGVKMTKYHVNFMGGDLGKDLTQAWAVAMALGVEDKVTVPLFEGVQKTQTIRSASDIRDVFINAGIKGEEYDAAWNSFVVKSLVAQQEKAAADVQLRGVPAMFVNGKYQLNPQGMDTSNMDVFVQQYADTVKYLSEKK

The term Kd denotes the concentration at which binding is half-saturated.

The target of the series is DsbA (Escherichia coli) (UniProt P0AEG4). The following applies: cited from earlier work.

Turning to DsbB P2 loop nonapeptide, the Kd is 4 µM.
